Measured values as given in US4374245A, “8-[3-(6-Fluoro-1,2-benzisoxazol-3-yl)propyl]- 1-phenyl-1,3,8-triazaspiro[4.5]decan-4-one” (Hoechst-Roussel Pharmaceuticals Inc., priority 1982, dated 1983).

Test system: phenyl-para-quinone induced writhes
Experiment: phenyl-para-quinone writhing assay in mice (analgesia)
Type: in vivo
Details: estimated subcutaneous dose at which phenyl-para-quinone induced writhes are reduced by 50% in mice

## Cl.O=C1NCN(c2ccccc2)C12CCN(CCCc1noc3cc(F)ccc13)CC2
  Analgesic Activity (ED50): 5.7 mg/kg
